Measurements: PMC7729925, “Selective hepatitis B and D virus entry inhibitors from the group of pentacyclic lupane-type betulin-derived triterpenoids” (Scientific Reports, 2020)

Target: T1, NTCP (Homo sapiens, UniProt Q14973)
T1 construct: expressed in transfected cells
T1 sequence (Q14973 1-349): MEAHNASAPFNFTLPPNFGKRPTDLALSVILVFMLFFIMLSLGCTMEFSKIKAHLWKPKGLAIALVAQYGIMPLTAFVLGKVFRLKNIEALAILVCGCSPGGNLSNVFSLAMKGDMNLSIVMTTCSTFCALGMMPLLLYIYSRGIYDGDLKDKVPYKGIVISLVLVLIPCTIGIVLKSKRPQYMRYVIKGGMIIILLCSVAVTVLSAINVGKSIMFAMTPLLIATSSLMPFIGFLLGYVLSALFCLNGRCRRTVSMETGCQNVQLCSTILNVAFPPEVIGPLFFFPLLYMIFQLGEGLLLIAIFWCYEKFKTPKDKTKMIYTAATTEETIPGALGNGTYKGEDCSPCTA
Assay: [3H]TC transport (bile acid uptake) inhibition in NTCP-HEK293 cells
Format: cell-based
Conditions: mean IC50, […] µM [3H]TC, standard pH 7.4

## CO[C@H]1C[C@@H]2CC[C@@H](C)[C@@](O)(O2)C(=O)C(=O)N2CCCC[C@H]2C(=O)O[C@H]([C@H](C)C[C@@H]2CC[C@@H](O)[C@H](OC)C2)CC(=O)[C@H](C)/C=C(\C)[C@@H](O)[C@@H](OC)C(=O)[C@H](C)C[C@H](C)/C=C/C=C/C=C/1C [rapamycin, reference compound]
  IC50: 34 µM
